# From PubChem BioAssay AID624263 (National Center for Advancing Translational Sciences (NCATS), 2012)
# The entries are a selection whose mix differs from that of the whole data set. Active and inactive are the calls of the source. The call rests on the fitted dose curve; in most records, active means well fitted activation curve with a large enough effect; inconclusive means small, poorly fitted or top-dose-only effect; inactive means flat fitted curve, though single readings scatter; cell line not stated here.
# Test: A Quantitative High throughput Screen to Identify Chemical Modulators of PINK1 Expression; further: % of control where 0% means no effect; nearly all actives have a fitted effect of over 65% in size
# Settings: PINK1 immunofluorescence, high-content cytometry, 24 h; series mostly up to 76.6 µM; activation (PINK1 increase): at the top concentration
row,SMILES,activation (PINK1 increase)
1,CC(C)=N/N=C(\N)N[N+](=O)[O-],inactive: 0.872%
2,CN(C)C(=O)OCCc1n(C)cc[n+]1C,inactive: 0.584%
3,CCN(/C(=N/P(=O)(N1CCOCC1)N1CCOCC1)N1CCOCC1)c1ccc(OC)cc1,inactive: 0.26%
4,COc1ccccc1OP(C)(=O)Nc1ccccc1Br (stereo not given),inactive: 2.76%
5,CC(C)(C)c1ccc(OP(C)(=O)O)cc1,inactive: 2.18% [at 38.3 µM]
6,Nc1ccc([As](=O)(O)c2ccc(N)cc2)cc1,inactive: 0.02%
7,C[N+]1=C2C=CC=CC=C2SC12C([N+](=O)[O-])=CC([N+](=O)[O-])=C[C-]2[N+](=O)[O-] (stereo not given),inactive: -1.67%
8,CP(=O)(OC12CC3CC(CC(C3)C1)C2)OC12CC3CC(CC(C3)C1)C2,inactive: 0.332% [at 38.3 µM]
9,CCOC(=O)c1ccc(NP(C)(=O)Oc2ccc(Cl)cc2)cc1 (stereo not given),inactive: 4.33%
10,O=P(/N=c1/nc(-c2ccccc2)n(-c2ccccc2)s1)(Nc1ccccc1)Nc1ccccc1,inactive: 0.463%
11,O=C(Nc1cc([As](=O)(O)O)ccc1O)c1ccccc1,inactive: -0.0579%
12,O=P1(N(CCCl)CCCl)OCCCS1 (stereo not given),inactive: -0.613%
13,Nc1ccc2c(ccc3cccnc32)n1.O=[N+]([O-])c1cc([N+](=O)[O-])c(O)c([N+](=O)[O-])c1,inactive: 0.678%
14,O=C(O)CNc1ccc([As](=O)(O)O)cc1,inactive: -1.88%
15,COC(=O)C1(C)COP(=O)(Nc2ccccc2)OC1 (stereo not given),inactive: -5.06%
16,O=[N+]([O-])c1cccc(NC2=NCC(CBr)S2)c1 (stereo not given),inactive: 2.9%
17,O=[N+]([O-])c1ncn(CCn2ncnc2[N+](=O)[O-])n1,inactive: -1.85%
18,CC(C)(C)C(=O)NC(Sc1ccncn1)C(Cl)(Cl)Cl (stereo not given),inactive: -0.172%
19,COc1ccc(NP(C)(=O)Oc2ccccc2OC)cc1 (stereo not given),inactive: 0.539%
20,CN(C)CCOC(=O)C(O)(c1ccccc1)C1CCCCC1 (stereo not given),inactive: -1.58%
21,O=P(Nc1nc2ccccc2s1)(c1ccccc1)c1ccccc1,inactive: 1.61%
22,C[C@H]1OP(=O)(Oc2ccccc2)[C@H](O)[C@H](O)[C@H]1N=[N+]=[N-] (stereo not given in full),inactive: 3.78%
23,O=P(Nc1ccccn1)(c1ccc(Br)cc1)c1ccc(Br)cc1,inactive: -0.713%
24,CN(C)C1(CNC(=O)c2ccc(Cl)c(S(N)(=O)=O)c2)CCCCC1,inactive: -0.0621%
25,COc1ccc(OP(C)(=O)Nc2cccc(Br)c2)cc1 (stereo not given),inactive: -0.752%
26,COc1ccc(N)c([N+](=O)[O-])c1[N+](=O)[O-],inactive: 1.42%
27,O=C(OC1CN2CCC1CC2)c1cccc(Cl)c1 (stereo not given),inactive: 33.6% [at 38.3 µM]
28,Cc1c(C(c2ccc3c(c2)OCO3)c2c(C)n(C)n(-c3ccccc3)c2=O)c(=O)n(-c2ccccc2)n1C.O=[N+]([O-])c1cc([N+](=O)[O-])c(O)c([N+](=O)[O-])c1,inactive: 0.703%
29,C(Cc1nn[nH]n1)Cc1nn[nH]n1,inactive: -0.247%
30,Nc1ccc([As](=O)(O)c2ccc([N+](=O)[O-])cc2)cc1,inactive: 0.611%
